Results as given in IntAct's records for PubMed 35512704.

B1: RAC-alpha serine/threonine-protein kinase (Homo sapiens), P31749 (parent)
chain: MSDVAIVKEGWLHKRGEYIKTWRPRYFLLKNDGTFIGYKERPQDVDQREAPLNNFSVAQCQLMKTERPRPNTFIIRCLQWTTVIERTFHVETPEEREEWTTAIQTVADGLKKQEEEEMDFRSGSPSDNSGAEEMEVSLAKPKHRVTMNEFEYLKLLGKGTFGKVILVKEKATGRYYAMKILKKEVIVAKDEVAHTLTENRVLQNSRHPFLTALKYSFQTHDRLCFVMEYANGGELFFHLSRERVFSEDRARFYGAEIVSALDYLHSEKNVVYRDLKLENLMLDKDGHIKITDFGLCKEGIKDGATMKTFCGTPEYLAPEVLEDNDYGRAVDWWGLGVVMYEMMCGRLPFYNQDHEKLFELILMEEIRFPRTLGPEAKSLLSGLLKKDPKQRLGGGSEDAKEIMQHRFFAGIVWQHVYEKKLSPPFKPQVTSETDTRYFDEEFTAQMITITPPDQDDSMECVDSERRPHFPQFSYSASGTA
partner: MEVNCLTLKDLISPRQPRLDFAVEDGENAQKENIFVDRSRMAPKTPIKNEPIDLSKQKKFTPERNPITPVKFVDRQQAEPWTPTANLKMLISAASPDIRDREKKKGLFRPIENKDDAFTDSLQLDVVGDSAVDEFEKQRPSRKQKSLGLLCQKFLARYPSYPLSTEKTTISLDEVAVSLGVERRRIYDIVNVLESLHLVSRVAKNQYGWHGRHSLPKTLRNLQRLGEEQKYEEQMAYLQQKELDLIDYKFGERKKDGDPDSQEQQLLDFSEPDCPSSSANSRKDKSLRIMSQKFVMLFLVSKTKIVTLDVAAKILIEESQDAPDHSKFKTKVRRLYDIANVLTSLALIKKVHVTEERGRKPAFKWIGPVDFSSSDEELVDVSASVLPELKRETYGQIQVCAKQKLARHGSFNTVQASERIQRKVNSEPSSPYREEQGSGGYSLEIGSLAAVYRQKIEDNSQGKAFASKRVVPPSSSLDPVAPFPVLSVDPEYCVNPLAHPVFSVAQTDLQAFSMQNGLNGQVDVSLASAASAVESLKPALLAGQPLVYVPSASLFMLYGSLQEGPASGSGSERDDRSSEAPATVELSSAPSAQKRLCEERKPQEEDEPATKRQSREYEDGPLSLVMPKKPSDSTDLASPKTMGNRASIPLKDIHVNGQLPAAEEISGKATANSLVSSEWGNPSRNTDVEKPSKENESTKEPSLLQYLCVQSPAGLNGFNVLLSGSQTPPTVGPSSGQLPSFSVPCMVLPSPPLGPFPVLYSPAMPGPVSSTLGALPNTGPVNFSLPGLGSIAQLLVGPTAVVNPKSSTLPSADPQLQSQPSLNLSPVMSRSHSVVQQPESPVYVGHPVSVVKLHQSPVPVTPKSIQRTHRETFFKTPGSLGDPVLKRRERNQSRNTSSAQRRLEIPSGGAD
B2: RAC-alpha serine/threonine-protein kinase (Homo sapiens), P31749 (parent)
chain: B1 chain
partner: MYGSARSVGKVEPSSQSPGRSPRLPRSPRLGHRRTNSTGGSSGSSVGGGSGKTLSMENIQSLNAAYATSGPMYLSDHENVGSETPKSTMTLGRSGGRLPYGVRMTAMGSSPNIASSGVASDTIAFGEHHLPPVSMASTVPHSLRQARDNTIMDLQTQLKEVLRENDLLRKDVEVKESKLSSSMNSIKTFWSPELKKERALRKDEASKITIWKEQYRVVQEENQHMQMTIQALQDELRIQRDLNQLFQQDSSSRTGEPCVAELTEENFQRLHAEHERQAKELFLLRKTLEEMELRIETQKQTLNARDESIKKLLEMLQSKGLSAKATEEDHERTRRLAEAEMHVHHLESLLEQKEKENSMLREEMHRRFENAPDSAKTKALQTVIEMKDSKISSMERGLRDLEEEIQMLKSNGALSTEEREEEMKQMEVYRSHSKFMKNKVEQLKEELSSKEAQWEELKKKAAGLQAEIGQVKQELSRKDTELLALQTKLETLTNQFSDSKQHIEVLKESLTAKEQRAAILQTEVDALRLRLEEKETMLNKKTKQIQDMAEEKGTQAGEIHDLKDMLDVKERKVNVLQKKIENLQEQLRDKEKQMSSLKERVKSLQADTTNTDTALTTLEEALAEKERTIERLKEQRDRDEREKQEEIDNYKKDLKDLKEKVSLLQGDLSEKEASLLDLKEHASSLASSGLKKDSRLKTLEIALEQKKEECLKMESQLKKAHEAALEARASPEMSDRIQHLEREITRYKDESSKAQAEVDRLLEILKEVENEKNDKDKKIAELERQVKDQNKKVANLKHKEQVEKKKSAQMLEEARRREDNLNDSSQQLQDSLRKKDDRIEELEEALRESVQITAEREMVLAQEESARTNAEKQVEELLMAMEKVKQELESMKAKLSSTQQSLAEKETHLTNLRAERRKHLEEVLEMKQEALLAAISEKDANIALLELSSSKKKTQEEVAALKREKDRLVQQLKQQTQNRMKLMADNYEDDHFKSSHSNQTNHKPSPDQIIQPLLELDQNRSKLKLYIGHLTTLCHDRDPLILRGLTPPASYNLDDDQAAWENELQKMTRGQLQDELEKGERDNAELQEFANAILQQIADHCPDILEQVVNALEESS
B3: RAC-alpha serine/threonine-protein kinase (Homo sapiens), P31749 (parent)
chain: B1 chain
partner: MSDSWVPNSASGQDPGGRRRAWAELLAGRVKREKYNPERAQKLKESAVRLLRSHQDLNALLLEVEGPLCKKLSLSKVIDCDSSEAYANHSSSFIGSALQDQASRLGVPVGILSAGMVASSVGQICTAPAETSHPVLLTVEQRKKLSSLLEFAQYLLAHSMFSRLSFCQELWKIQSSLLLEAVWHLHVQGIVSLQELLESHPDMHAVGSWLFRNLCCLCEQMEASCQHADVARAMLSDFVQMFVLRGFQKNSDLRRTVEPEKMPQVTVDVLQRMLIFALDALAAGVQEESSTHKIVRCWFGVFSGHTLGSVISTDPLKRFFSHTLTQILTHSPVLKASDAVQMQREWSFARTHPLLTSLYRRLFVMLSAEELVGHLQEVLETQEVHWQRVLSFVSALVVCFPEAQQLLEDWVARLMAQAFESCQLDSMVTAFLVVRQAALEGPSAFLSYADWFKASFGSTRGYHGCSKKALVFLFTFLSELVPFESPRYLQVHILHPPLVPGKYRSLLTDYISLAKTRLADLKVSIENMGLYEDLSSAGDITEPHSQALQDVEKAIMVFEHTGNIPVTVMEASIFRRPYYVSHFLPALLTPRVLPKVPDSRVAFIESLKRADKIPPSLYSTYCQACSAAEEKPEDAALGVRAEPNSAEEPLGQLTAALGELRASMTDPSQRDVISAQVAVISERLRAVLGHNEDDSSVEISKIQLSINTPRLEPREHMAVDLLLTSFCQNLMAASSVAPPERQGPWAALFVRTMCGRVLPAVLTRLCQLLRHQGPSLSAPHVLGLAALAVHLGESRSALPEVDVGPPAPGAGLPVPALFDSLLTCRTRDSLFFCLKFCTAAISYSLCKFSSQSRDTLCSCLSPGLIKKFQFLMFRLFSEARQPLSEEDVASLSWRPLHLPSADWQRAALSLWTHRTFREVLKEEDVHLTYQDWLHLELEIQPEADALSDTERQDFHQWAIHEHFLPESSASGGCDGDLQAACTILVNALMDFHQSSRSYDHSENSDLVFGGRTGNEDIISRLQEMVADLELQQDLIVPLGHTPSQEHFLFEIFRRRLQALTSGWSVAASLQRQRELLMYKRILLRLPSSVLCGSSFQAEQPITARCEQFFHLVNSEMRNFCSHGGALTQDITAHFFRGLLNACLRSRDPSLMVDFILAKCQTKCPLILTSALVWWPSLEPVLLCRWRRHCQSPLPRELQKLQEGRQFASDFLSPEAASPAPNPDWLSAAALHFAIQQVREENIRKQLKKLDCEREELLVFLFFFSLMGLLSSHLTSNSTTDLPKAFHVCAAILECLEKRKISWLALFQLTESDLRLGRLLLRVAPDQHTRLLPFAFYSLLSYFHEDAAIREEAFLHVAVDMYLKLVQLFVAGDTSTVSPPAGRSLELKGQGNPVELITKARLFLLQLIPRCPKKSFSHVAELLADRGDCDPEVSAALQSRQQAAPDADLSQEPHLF

Variants of: B1
Details: with e2f7_human E2F7, Q96AV8

effect of a mutation on the interaction | Variant
with no effect | MSDVAIVKEGWLHKRGKYIKTWRPRYFLLKNDGTFIGYKERPQDVDQREAPLNNFSVAQCQLMKTERPRPNTFIIRCLQWTTVIERTFHVETPEEREEWTTAIQTVADGLKKQEEEEMDFRSGSPSDNSGAEEMEVSLAKPKHRVTMNEFEYLKLLGKGTFGKVILVKEKATGRYYAMKILKKEVIVAKDEVAHTLTENRVLQNSRHPFLTALKYSFQTHDRLCFVMEYANGGELFFHLSRERVFSEDRARFYGAEIVSALDYLHSEKNVVYRDLKLENLMLDKDGHIKITDFGLCKEGIKDGATMKTFCGTPEYLAPEVLEDNDYGRAVDWWGLGVVMYEMMCGRLPFYNQDHEKLFELILMEEIRFPRTLGPEAKSLLSGLLKKDPKQRLGGGSEDAKEIMQHRFFAGIVWQHVYEKKLSPPFKPQVTSETDTRYFDEEFTAQMITITPPDQDDSMECVDSERRPHFPQFSYSASGTA [E17K]

Variants of: B2
Details: with rb6i2_human ERC1, Q8IUD2

effect of a mutation on the interaction | Variant
with no effect | MSDVAIVKEGWLHKRGKYIKTWRPRYFLLKNDGTFIGYKERPQDVDQREAPLNNFSVAQCQLMKTERPRPNTFIIRCLQWTTVIERTFHVETPEEREEWTTAIQTVADGLKKQEEEEMDFRSGSPSDNSGAEEMEVSLAKPKHRVTMNEFEYLKLLGKGTFGKVILVKEKATGRYYAMKILKKEVIVAKDEVAHTLTENRVLQNSRHPFLTALKYSFQTHDRLCFVMEYANGGELFFHLSRERVFSEDRARFYGAEIVSALDYLHSEKNVVYRDLKLENLMLDKDGHIKITDFGLCKEGIKDGATMKTFCGTPEYLAPEVLEDNDYGRAVDWWGLGVVMYEMMCGRLPFYNQDHEKLFELILMEEIRFPRTLGPEAKSLLSGLLKKDPKQRLGGGSEDAKEIMQHRFFAGIVWQHVYEKKLSPPFKPQVTSETDTRYFDEEFTAQMITITPPDQDDSMECVDSERRPHFPQFSYSASGTA [E17K]

Variants of: B3
Details: with fanca_human FANCA

effect of a mutation on the interaction | Variant
with no effect | MSDVAIVKEGWLHKRGKYIKTWRPRYFLLKNDGTFIGYKERPQDVDQREAPLNNFSVAQCQLMKTERPRPNTFIIRCLQWTTVIERTFHVETPEEREEWTTAIQTVADGLKKQEEEEMDFRSGSPSDNSGAEEMEVSLAKPKHRVTMNEFEYLKLLGKGTFGKVILVKEKATGRYYAMKILKKEVIVAKDEVAHTLTENRVLQNSRHPFLTALKYSFQTHDRLCFVMEYANGGELFFHLSRERVFSEDRARFYGAEIVSALDYLHSEKNVVYRDLKLENLMLDKDGHIKITDFGLCKEGIKDGATMKTFCGTPEYLAPEVLEDNDYGRAVDWWGLGVVMYEMMCGRLPFYNQDHEKLFELILMEEIRFPRTLGPEAKSLLSGLLKKDPKQRLGGGSEDAKEIMQHRFFAGIVWQHVYEKKLSPPFKPQVTSETDTRYFDEEFTAQMITITPPDQDDSMECVDSERRPHFPQFSYSASGTA [E17K]
